# Laboratory results reported in publication PMC5706069 (2017).
# Columns and labels:
# human KOR = human KOR (Homo sapiens, UniProt P41145); assay: Competition binding assay, [3H]HS665, CHO-hKOR cell membranes; settings: ratio of Ki values
# human DOR = human DOR (Homo sapiens, UniProt P41143); assay: Competition binding assay, [3H]diprenorphine, CHO-hDOR cell membranes; settings: ratio of Ki values
# human MOR = human MOR (Homo sapiens, UniProt P35372); assay: [35S]GTPγS binding assay using CHO-hMOR cell membranes; format: biochemical; settings: read-out: functional activity [35S]GTPγS MOR % stim
structure (smiles),measurement,setting,value
"CO[C@@]12CCC[C@]3(C)Oc4c(O)ccc5c4[C@@]31CCN(C)[C@@H]2C5 [Compound 4a, 5β,17-Dimethyl-4,5α-epoxy-3-hydroxy-14β-methoxymorphinan]",selectivity KOR/MOR,human KOR,23
same,selectivity DOR/MOR,human DOR,38
same,Emax,human MOR,104 ± 3%
